Measured values: PubChem BioAssay (NCI)
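Five compound concentrations were applied to cells in 96-well plates for 48 hours; endpoints were derived by simple linear interpolation of the resulting dose-response curve. GI50 = concentration required for 50% inhibition of growth. At the TGI there is no net growth.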

Tested on: MDA-MB-468 breast
Assay: DTP human tumour cell line panel, 48 h

`O=[N+]([O-])c1cccc(Oc2ccc([N+](=O)[O-])cc2[N+](=O)[O-])c1` showed a GI50 of 1.51 µM and a TGI of 3.29 µM.
